Earlier results on 1 substance are cited in patent US20250049819A1, “METHODS FOR TREATING AND PREVENTING C. DIFFICILE INFECTION” (Paratek Pharmaceuticals, Inc., priority 2016, published 2025).

The test system of this data set is C. difficile and gut microbiota. The settings on record: published gut model studies; cited from earlier work.

Regarding amoxicillin clavulanate, the “induction of simulated CDI (C. difficile germination and toxin production) in the gut model” value is on record as “have induced CDI in this model”.
